Test results as given in ChEMBL document CHEMBL4020717.
Some compounds may have been tested in ways that are not shown here.

Amino acid sequences for entries named in this document (tags omitted). Residues count along the entry.
UniProt P06276, 29-602 limits assumed: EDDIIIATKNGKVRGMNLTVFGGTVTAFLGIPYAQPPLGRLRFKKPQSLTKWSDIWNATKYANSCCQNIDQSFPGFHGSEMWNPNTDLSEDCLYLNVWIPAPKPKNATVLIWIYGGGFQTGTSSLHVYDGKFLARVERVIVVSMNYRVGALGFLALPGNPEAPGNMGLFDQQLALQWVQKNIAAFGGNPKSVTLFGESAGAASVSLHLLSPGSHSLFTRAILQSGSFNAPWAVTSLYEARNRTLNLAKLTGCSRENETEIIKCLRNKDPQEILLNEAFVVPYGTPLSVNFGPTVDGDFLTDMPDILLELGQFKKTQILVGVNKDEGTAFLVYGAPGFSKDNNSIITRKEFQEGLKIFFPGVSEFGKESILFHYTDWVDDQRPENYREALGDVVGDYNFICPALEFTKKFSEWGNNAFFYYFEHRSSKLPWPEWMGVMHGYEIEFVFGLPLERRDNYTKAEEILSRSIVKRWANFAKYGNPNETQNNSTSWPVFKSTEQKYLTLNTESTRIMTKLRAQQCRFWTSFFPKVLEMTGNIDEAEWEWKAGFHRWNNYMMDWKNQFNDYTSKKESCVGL

Target: Cholinesterase (Homo sapiens, UniProt P06276)
Experiment: Inhibition of human BChE using butyrylthiocholine as substrate measured for 30 secs by Ellman's method

CCOP(=O)(OCC)Oc1ccc([N+](=O)[O-])cc1
IC50: 7 nM
